Results reported in patent US20130095194A1, “USE OF INHALED NITROUS OXIDE OR XENON FOR PREVENTING NEUROPATHIC PAIN CAUSED BY CANCER CHEMOTHERAPY” (L'Air Liquide, Société Anonyme pour I'Etude et …, priority 2011, published 2013).

System: neuropathic pain caused by oxaliplatin in rats
Assay: Randall-Selitto pain thresholds in rats given repeated intraperitoneal oxaliplatin (chemo-induced neuropathic pain model)
Settings: rats given oxaliplatin 2 mg/kg; gas/O2 (50%-50%) inhaled for 1 hour with each administration
Experimental: A preclinical study in rats was carried out.
In order to mimic the clinical use as closely as possible, a series of 8 intraperitoneal injections of oxaliplatin were given every 3 to 4 days, as illustrated in FIG. 2. This model is well known in the literature and gives an account of chemo-induced neuropathic pain.
The pain thresholds were evaluated by means of a Randall-Selitto device by applying an increasing pressure to the paw of the rat until the animal lets out a cry. The corresponding weight in grams is then noted (the Y-axis in FIG. 2). Thus, the earlier the animal cries out, for a low weight, the more pain it has.

Question: For `[N-]=[N+]=O` [N2O, nitrous oxide], which “hypersensitivity to pain (pain threshold curve versus control group A)” value is on record?
Answer: no sign of hypersensitivity to pain
